From patent US10759791B2, “Mammalian and bacterial nitric oxide synthase inhibitors” (Northwestern University, priority 2014, dated 2020) come the findings set out here.

Where “and” joins values, the source holds several entries; their conditions need not be identical. Equal entries are not always repeated.

Data set [1] deals with T1, rat nNOS (Rattus norvegicus (Rat), UniProt P29476). The data set can be described thus: Hemoglobin capture assay, Ki (Example 159). It counts as biochemical.
A further data set addresses human nNOS (Homo sapiens (Human), UniProt P29475). The data set can be described thus: Hemoglobin capture assay, Ki (Example 159). The data set is classed as biochemical. The note with it: human nNOS vs human eNOS.
The conditions of data set [2]: 5 μM, 4 h.
Another data set can be described thus: in vitro. The note with it: human, plasma.
Data set [3] addresses T1, rat nNOS. The data set can be described thus: Oxyhemoglobin NO assay, Ki (Table 9). It counts as biochemical.

At rat nNOS [1], `Cc1cc(N)nc(CCc2cncc(CCCN(C)C)c2)c1` [Compound 14k, 6-(2-(5-(3-(Dimethylamino)propyl)pyridin-3-yl)ethyl)-4-methylpyridin-2-amine] had an inhibitory constant (Ki) of 25 nM. At rat nNOS [1] (rat nNOS vs bovine eNOS), this compound registered a Selectivity n/e of 665. The Selectivity n/i at rat nNOS [1] (rat nNOS vs murine iNOS) is listed as 59. Moreover, the “Selectivity n/e (human)” value at human nNOS is 1068.
Consider `CNCCCc1cncc(CCc2cc(C)cc(N)n2)c1` [Compound 14j, 4-Methyl-6-(2-(5-(3-(methylamino)propyl)pyridin-3-yl)ethyl)pyridin-2-amine], for which the “% Bound Mean ± SD” value in data set [2] is 20% and 22.8 ± 4.7%. Besides, the unbound share (fraction unbound) at 4 h, 5 μM was 0.8 in the data set “in vitro” (pH 7.4, % Bound Mean ± SD, 5 μM); 0.744 in the data set “in vitro” (pH 7.4, % Bound R1, 5 μM); 0.746 in the data set “in vitro” (pH 7.4, % Bound R2, 5 μM); 0.826 in “in vitro” (pH 7.4, % Bound R3, 5 μM).
For `CNCCN(C)c1cc(C#N)cc(CCc2cc(C)cc(N)n2)c1` [Compound 19c, 3-(2-(6-Amino-4-methylpyridin-2-yl)ethyl)-5-(methyl(2-(methylamino)ethyl)amino)benzonitrile], the e/n at rat nNOS [3] (ratio Ki eNOS to Ki rat nNOS) is reported as 1040. Also, on rat nNOS [3] (ratio Ki iNOS to Ki rat nNOS), the i/n amounted to 153.

What is called Ki is a dissociation constant, usually derived from enzyme kinetics or from competition with a known ligand. Higher therefore signals weaker binding. By fraction unbound is commonly meant free concentration divided by total concentration. Read a high fraction unbound as weak binding.
